Experiment [1] deals with hSOD1-G93A transgenic mice. In words: Number of mice surviving more than 120 days. The experiment is classed as in vivo. Particulars: intragastric once a day for 4 weeks, 40 mg/kg (positive control 2 mg/kg), 8-9 mice per group. Here is the method:
(§1) 10 two-months wild-type BALB/C mice were used as the normal control group, and 110 two-months hSOD1-G93A transgenic mice were randomly divided into 11 groups, 10 mice for each group, and 11 groups are blank group, positive control group, the drug compositions 1-3 of the present invention groups, and the control 1-6 groups, respectively.
(§2) All mice were adaptively fed for three weeks, and a rotating rod experiment was performed once a week. The diameter of the rotating rod was 3.5 cm, and its rotating speed was 12 r/min. Experiment on each mouse was carried out three times in parallel, with a 5 min interval. The longest time recorded was the fall time of mice, the mice with a fall time of shorter than 7 min in the third rotating rod experiment were excluded, and then mice received drugs by intragastric administration, in which the normal control group and the blank group were given physiological saline, while the positive control group, the drug combinations 1-3 groups, and the control groups 1-6 were given corresponding drugs, with the volume of 0.5 ml. Amongst, the gavage dose of positive control group was 2 mg/kg body weight, and the gavage dose of drug combinations 1-3 and controls 1-6 groups was both 40 mg/kg body weight. […] In one experiment, each mouse was tested 3 times at interval of 5 minutes, and the longest time recorded was the fall time of mice. […]

Experiment [2] concerns hSOD1-G93A transgenic mice. The class given is in vivo. Conditions: gavage 4 weeks. Here is the method: as §1, §2

The values below come from patent US20210137951A1, “DRUG COMBINATION FOR TREATMENT OF AMYOTROPHIC LATERAL SCLEROSIS, PREPARATION METHOD AND USE THEREOF” (priority 2018, published 2021).

Take `Nc1nc2ccc(OC(F)(F)F)cc2s1` [Positive control, Riluzole]: the “Survival numbers (number of mice surviving for more than 120 days)” value in experiment [1] is recorded as 4; in experiment [1] (listed as riluzole), “four”. Moreover, the “Indexes for the fall time and the number of mice surviving more than 120 days, comparison between groups (in words)” value in experiment [2] is reported as “obviously longer than that of the mice in the blank group”. The “Effect on delaying the progression of amyotrophic lateral sclerosis (in words)” value in experiment [2] (judged from fall time and mice surviving more than 120 days) is on record as “had the effect on delaying the progression of amyotrophic lateral sclerosis”.
